# Experimental data taken from US20190336615A1 (SILVERBACK THERAPEUTICS, published 2019).
# Amino acid sequences for entries named in this document (tags omitted). Residues count along the entry.
# UniProt P08637, 17-208 F176V: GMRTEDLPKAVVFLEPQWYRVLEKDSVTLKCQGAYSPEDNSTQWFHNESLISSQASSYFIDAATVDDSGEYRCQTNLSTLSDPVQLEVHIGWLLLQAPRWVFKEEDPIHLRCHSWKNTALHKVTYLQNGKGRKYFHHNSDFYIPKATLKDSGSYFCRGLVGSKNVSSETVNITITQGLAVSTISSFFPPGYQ
# UniProt P08637, 17-208 limits assumed: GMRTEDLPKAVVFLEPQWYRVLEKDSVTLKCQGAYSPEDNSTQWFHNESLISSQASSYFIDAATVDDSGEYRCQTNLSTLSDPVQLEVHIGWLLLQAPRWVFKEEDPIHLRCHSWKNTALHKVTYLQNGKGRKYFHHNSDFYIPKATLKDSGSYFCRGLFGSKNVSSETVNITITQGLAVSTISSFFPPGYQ
# T1: human FcγRIIA, monomeric (human, UniProt P12318 36-218, limits assumed)
# T1 construct: not tied to the assay protein; also called huFcγR2A; huFcyRIIA
# T1 sequence (looked up): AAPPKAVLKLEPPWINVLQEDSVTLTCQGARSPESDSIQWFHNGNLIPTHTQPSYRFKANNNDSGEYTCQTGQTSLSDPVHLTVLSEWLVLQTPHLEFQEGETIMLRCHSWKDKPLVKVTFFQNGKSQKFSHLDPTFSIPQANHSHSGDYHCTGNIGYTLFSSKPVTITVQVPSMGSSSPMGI
# B1: bispecific anti-HER2 x anti-CD40 IgG1 Fc null recombinant antibody (HER2-CD40 G1null) (bispecific antibody)
# heavy: EVQLVESGGGLVQPGGSLRLSCAASGFTFTDYTMDWVRQAPGKGLEWVADVNPNSGGSIYNQRFKGRFTLSVDRSKNTLYLQMNSLRAEDTAVYYCARNLGPSFYFDYWGQGTLVTVSSASTKGPSVFPLAPSSKSTSGGTAALGCLVKDYFPEPVTVSWNSGALTSGVHTFPAVLQSSGLYSLSSVVTVPSSSLGTQTYICNVNHKPSNTKVDKKVEPKSCDKTHTCPPCPAPEAAGAPSVFLFPPKPKDTLMISRTPEVTCVVVDVSHEDPEVKFNWYVDGVEVHNAKTKPREEQYNSTYRVVSVLTVLHQDWLNGKEYKCAVSNKALPAPIEKTISKAKGQPREPQVYTLPPSREEMTKNQVSLTCLVKGFYPSDIAVEWESNGQPENNYKTTPPVLDSDGSFFLYSKLTVDKSRWQQGNVFSCSVMHEALHNHYTQKSLSLSPGGGGGSGGGGSQVQLVQSGAEVKKPGASVKVSCKASGYTFTGYYMHWVRQAPGQGLEWMGWINPDSGGTNYAQKFQGRVTMTRDTSISTAYMELNRLRSDDTAVYYCARDQPLGYCTNGVCSYFDYWGQGTLVTVSSGGGGSGGGGSGGGGSGGGGSDIQMTQSPSSVSASVGDRVTITCRASQGIYSWLAWYQQKPGKAPNLLIYTASTLQSGVPSRFSGSGSGTDFTLTISSLQPEDFATYYCQQANIFPLTFGGGTKVEIK
# light: DIQMTQSPSSLSASVGDRVTITCKASQDVSIGVAWYQQKPGKAPKLLIYSASYRYTGVPSRFSGSGSGTDFTLTISSLQPEDFATYYCQQYYIYPYTFGQGTKVEIKRTVAAPSVFIFPPSDEQLKSGTASVVCLLNNFYPREAKVQWKVDNALQSGNSQESVTEQDSKDSTYSLSSTLTLSKADYEKHKVYACEVTHQGLSSPVTKSFNRGEC
# notes: also called anti-HER2×anti-CD40 Fcnull; HER2-CD40 Fcnull
# Tests used:
# human FcγRIIIA V158 = biological target: T2, human FcγRIIIA V158 (human, UniProt P08637, in part); assay: BLI (Octet), FcγR on anti-His sensor, antibody analyte, avidity model
# T2 construct: F as the other allele comes from its 'F158' variant; 158 counts on the mature protein, not on the precursor entry; also called huFcγR3 V158
# human FcγRIIIA F158 = biological target: T3, human FcγRIIIA F158 (human, UniProt P08637, in part); assay: as above
# T3 construct: not tied to the assay protein; also called huFcγR3 F158
# human FcγRI, monomeric = biological target: T4, human FcγRI, monomeric (human); assay: BLI (Octet), antibody on anti-human Fc sensor, monomeric FcγR analyte, 1:1 model
# T4 construct: not tied to the assay protein; also called huFcγR1; huFcyRI
# Description: (§1) Equilibrium dissociation constants (KD) were calculated by the […].
# human FcγRIIA, monomeric = biological target: T1, human FcγRIIA, monomeric; assay: as above
# Description: as §1
binder,measurement,setting,value
B1,binding result,human FcγRIIIA V158,no binding (tested: 37 nM to 1 µM antibody)
same,binding result,human FcγRIIIA F158,no binding (tested: 37 nM to 1 µM antibody)
same,binding result,"human FcγRI, monomeric",no binding (tested: 1.2 nM to 300 nM FcγR)
same,binding result,"human FcγRIIA, monomeric",no binding (tested: 1.2 nM to 300 nM FcγR)
